# According to US10442819B2, “Tricyclic compounds as inhibitors of mutant IDH enzymes” (Merck Sharp & Dohme Corp., priority 2014, dated 2019):
# The chains behind the UniProt entries cited, without tags or fusion partners.
# UniProt O75874, whole entry R132H: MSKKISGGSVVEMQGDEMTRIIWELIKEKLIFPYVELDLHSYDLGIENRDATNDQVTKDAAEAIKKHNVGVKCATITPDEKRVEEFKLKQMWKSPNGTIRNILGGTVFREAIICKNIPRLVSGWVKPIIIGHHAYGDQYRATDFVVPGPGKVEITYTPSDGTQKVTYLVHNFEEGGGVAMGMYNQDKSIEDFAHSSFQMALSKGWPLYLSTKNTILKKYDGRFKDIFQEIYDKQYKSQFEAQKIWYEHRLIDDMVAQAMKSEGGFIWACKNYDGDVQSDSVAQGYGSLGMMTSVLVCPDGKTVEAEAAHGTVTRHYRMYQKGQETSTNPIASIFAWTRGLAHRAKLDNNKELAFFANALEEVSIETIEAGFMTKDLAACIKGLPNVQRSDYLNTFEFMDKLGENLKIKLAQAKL
# Molecular target: R132H mutant IDH1 enzyme (Homo sapiens (Human), UniProt O75874, R132H)
# Test: R132H IDH1 Enzymatic Assay
# Format: biochemical
# Conditions: R132H mutant IDH1 enzyme 1.5 nM final; luminescence readout; read-out: IC50
row,Structure (SMILES),pIC50
1,"CO[C@H]1CC[C@H](C(=O)N2Cc3cccnc3Nc3ccc(C(=O)Nc4ccccc4F)cc32)CC1 [Example 509, N-(2-Fluorophenyl)-6-[(trans-4-methoxycyclohexyl)carbonyl]-6,11-dihydro-5H-pyrido[2,3-b][1,5]benzodiazepine-8-carboxamide]",6.63
2,"CO[C@H]1CC[C@@H](C(=O)N2Cc3cccnc3Nc3ccc(C(=O)Nc4ccccc4F)cc32)CC1 [Example 510, N-(2-Fluorophenyl)-6-[(cis-4-methoxycyclohexyl)carbonyl]-6,11-dihydro-5H-pyrido[2,3-b][1,5]benzodiazepine-8-carboxamide]",6.69
3,"CO[C@H]1CC[C@H](C(=O)N2Cc3cccnc3Nc3ccc(C4(O)CCOCC4)cc32)CC1 [Example 511, [8-(4-Hydroxytetrahydro-2H-pyran-4-yl)-5,11-dihydro-6H-pyrido[2,3-b][1,5]benzodiazepin-6-yl](trans-4-methoxycyclohexyl)methanone]",6.56
4,"CC(C)O[C@H]1CC[C@H](C(=O)N2Cc3cccnc3Nc3ccc(C4(O)COC4)cc32)CC1 [Example 512, [8-(3-hydroxyoxetan-3-yl)-5,11-dihydro-6H-pyrido[2,3-b][1,5]benzodiazepin-6-yl][trans-4-(propan-2-yloxy)cyclohexyl]methanone]",7.33
5,"CO[C@H]1CC[C@H](C(=O)N2Cc3cccnc3Nc3ccc(C4CCOCC4)cc32)CC1 [Example 513, 6-[(Trans-4-methoxycyclohexyl)carbonyl]-8-(tetrahydro-2H-pyran-4-yl)-6,11-dihydro-5H-pyrido[2,3-b][1,5]benzodiazepine]",7.27
6,"CO[C@H]1CC[C@H](C(=O)N2Cc3cccnc3Nc3ccc(C4=CCOCC4)cc32)CC1 [Example 514, 8-(3,6-Dihydro-2H-pyran-4-yl)-6-[(trans-4-methoxycyclohexyl)carbonyl]-6,11-dihydro-5H-pyrido[2,3-b][1,5]benzodiazepine]",7.05
7,"O=C(C1CCN(CC(F)(F)F)CC1)N1Cc2cccnc2Nc2ccc(C3CCOCC3)cc21 [Example 515, 8-(tetrahydro-2H-pyran-4-yl)-6-{[1-(2,2,2-trifluoroethyl)piperidin-4-yl]carbonyl}-6,11-dihydro-5H-pyrido[2,3-b][1,5]benzodiazepine]",8.22
8,"O=C(C1CCN(CC(F)(F)F)CC1)N1Cc2cccnc2Nc2ccc(C3=CCOCC3)cc21 [Example 516, 8-(3,6-dihydro-2H-pyran-4-yl)-6-{[1-(2,2,2-trifluoroethyl}piperidin-4-yl]carbonyl}-6,11-dihydro-5H-pyrido[2,3-b][1,5]benzodiazepine]",8.10
9,"CO[C@H]1CC[C@H](C(=O)N2Cc3cccnc3Nc3ccc(C(C)O)cc32)CC1 (stereo partly drawn) [Example 517, [8-(1-Hydroxyethyl)-5,11-dihydro-6H-pyrido[2,3-b][1,5]benzodiazepin-6-yl](trans-4-methoxycyclohexyl)methanone]",6.09
10,"CC(C)O[C@H]1CC[C@H](C(=O)N2Cc3cccnc3Nc3ccc(C(F)(F)F)cc32)CC1 [Example 518, [Trans-4-(propan-2-yloxy)cyclohexyl][8-(trifluoromethyl)-5,11-dihydro-6H-pyrido[2,3-b][1,5]benzodiazepin-6-yl]methanone]",7.26
11,COc1ccc2c(c1)N(C(=O)[C@H]1CC[C@H](OC(C)C)CC1)Cc1cccnc1N2 [Example 519],7.14
12,"CC(C)O[C@H]1CC[C@H](C(=O)N2Cc3cccnc3Nc3ccc(C4CCOCC4)nc32)CC1 [Example 520, [Trans-4-(propan-2-yloxy)cyclohexyl][2-(tetrahydro-2H-pyran-4-yl)-5,10-dihydro-11H-dipyrido[2,3-b:2′,3′-e][1,4]diazepin-11-yl]methanone]",6.70
13,"CC(C)(O)[C@H]1CC[C@H](C(=O)N2Cc3cccnc3Nc3ccc(N4CCOCC4)cc32)CC1 [Example 521, [Trans-4-(2-hydroxypropan-2-yl)cyclohexyl][8-(morpholin-4-yl)-5,11-dihydro-6H-pyrido[2,3-b][1,5]benzodiazepin-6-yl]methanone]",6.88
14,"O=C(C1CC=CCC1)N1Cc2cccnc2Nc2ccc(N3CCOCC3)cc21 (stereo not shown) [Example 522, Cyclohex-3-en-1-yl[8-(morpholin-4-yl)-5,11-dihydro-6H-pyrido[2,3-b][1,5]benzodiazepin-6-yl]methanone]",6.17
15,"CC(C)O[C@H]1CC[C@H](C(=O)N2Cc3cccnc3Nc3ccc(C4(O)CCOCC4)cc32)CC1 [Example 523, [8-(4-Hydroxytetrahydro-2H-pyran-4-yl)-5,11-dihydro-6H-pyrido[2,3-b][1,5]benzodiazepin-6-yl][trans-4-(propan-2-yloxy)cyclohexyl]methanone]",7.17
16,"COC1(c2ccc3c(c2)N(C(=O)[C@H]2CC[C@H](OC(C)C)CC2)Cc2cccnc2N3)CCOCC1 [Example 524, [8-(4-methoxytetrahydro-2H-pyran-4-yl)-5,11-dihydro-6H-pyrido[2,3-b][1,5]benzodiazepin-6-yl][trans-4-(propan-2-yloxy)cyclohexyl]methanone]",7.41

row,Structure (SMILES),pIC50
1,"CC(C)O[C@H]1CC[C@H](C(=O)N2Cc3cccnc3Nc3ccc(S(=O)(=O)C4CC4)cc32)CC1 [Example 525, [8-(Cyclopropylsulfonyl)-5,11-dihydro-6H-pyrido[2,3-b][1,5]benzodiazepin-6-yl][trans-4-(propan-2-yloxy)cyclohexyl]methanone]",8.10
2,"CC(C)O[C@H]1CC[C@H](C(=O)N2Cc3cccnc3Nc3ccc(C4CCCO4)cc32)CC1 (stereo partly drawn) [Example 526, [Trans-4-(propan-2-yloxy)cyclohexyl][8-(tetrahydrofuran-2-yl)-5,11-dihydro-6H-pyrido[2,3-b][1,5]benzodiazepin-6-yl]methanone]",7.59
3,"CO/N=C1/CCC(c2ccc3c(c2)N(C(=O)C2CCC(OC(C)C)CC2)Cc2cccnc2N3)C1 (stereo not drawn) [Example 527, E and Z {8-[3-(Methoxyimino)cyclopentyl]-5,11-dihydro-6H-pyrido[2,3-b][1,5]benzodiazepin-6-yl}[trans-4-(propan-2-yloxy)cyclohexyl]methanone]",8.05
4,"CC(C)O[C@H]1CC[C@H](C(=O)N2Cc3cccnc3Nc3ccc(C4CCN(S(C)(=O)=O)CC4)cc32)CC1 [Example 528, {8-[1-(Methylsulfonyl)piperidin-4-yl]-5,11-dihydro-6H-pyrido[2,3-b][1,5]benzodiazepin-6-yl}[trans-4-(propan-2-yloxy)cyclohexyl]methanone]",7.96
5,"CC(C)O[C@H]1CC[C@H](C(=O)N2Cc3cccnc3Nc3ccc(C4CCC(C)O4)cc32)OC1 (stereo partly drawn) [Example 533, ((2R,5S)-5-isopropoxytetrahydro-2H-pyran-2-yl)(8-(5-methyltetrahydrofuran-2-yl)-5,11-dihydro-6H-benzo[b]pyrido[2,3-e][1,4]diazepin-6-yl)methanone]",7.77
6,"CC(C)O[C@H]1CC[C@H](C(=O)N2Cc3cccnc3Nc3ccc([C@H]4COC[C@@H]4C)cc32)OC1 [Example 538, ((2R,5S)-5-isopropoxytetrahydro-2H-pyran-2-yl)(8-((3S,4R)-4-methyltetrahydrofuran-3-yl)-5,11-dihydro-6H-benzo[b]pyrido[2,3-e][1,4]diazepin-6-yl)methanone]",8.30
7,"CC(C)O[C@H]1CC[C@H](C(=O)N2Cc3cccnc3Nc3ccc([C@@H]4COC[C@H]4C)cc32)OC1 [Example 539, ((2R,5S)-5-isopropoxytetrahydro-2H-pyran-2-yl)(8-((3R,4S)-4-methyltetrahydrofuran-3-yl)-5,11-dihydro-6H-benzo[b]pyrido[2,3-e][1,4]diazepin-6-yl)methanone]",8.05
8,"CC(C)O[C@H]1CC[C@H](C(=O)N2Cc3cccnc3Nc3ccc(C4CC(F)CO4)cc32)OC1 (stereo partly drawn) [Example 540, (8-(4-Fluorotetrahydrofuran-2-yl)-5,11-dihydro-6H-benzo[b]pyrido[2,3-e][1,4]diazepin-6-yl)((2R,5S)-5-isopropoxytetrahydro-2H-pyran-2-yl)methanone]",7.23
9,"CC(C)O[C@H]1CC[C@H](C(=O)N2Cc3cccnc3Nc3ccc(C(C)OCCOC4CCC4)cc32)CC1 (stereo partly drawn) [Example 541, (8-{1-[2-(Cyclobutyloxy)ethoxy]ethyl}-5,11-dihydro-6H-pyrido[2,3-b][1,5]benzodiazepin-6-yl)[trans-4-(propan-2-yloxy)cyclohexyl]methanone]",7.89
10,"COC(C)c1ccc2c(c1)N(C(=O)[C@H]1CC[C@H](OC(C)C)CC1)Cc1cccnc1N2 (stereo partly drawn) [Example 542, 8-(1-methoxyethyl)-6-{[trans-4-(1-methylethoxy)cyclohexyl]carbonyl}-6,11-dihydro-5H-pyrido[2,3-b][1,5]benzodiazepine]",7.66
11,"CCOC(C)c1ccc2c(c1)N(C(=O)[C@H]1CC[C@H](OC(C)C)CC1)Cc1cccnc1N2 (stereo partly drawn) [Example 543, 8-(1-ethoxyethyl)-6-{[trans-4-(1-methylethoxy)cyclohexyl]carbonyl}-6,11-dihydro-5H-pyrido[2,3-b][1,5]benzodiazepine]",7.68
12,"CC(C)O[C@H]1CC[C@H](C(=O)N2Cc3cccnc3Nc3ccc(C(C)OC4CCCOC4)cc32)CC1 (stereo partly drawn) [Example 544, 6-{[trans-4-(1-methylethoxy)cyclohexyl]carbonyl}-8-[1-(tetrahydro-2H-pyran-3-yloxy)ethyl]-6,11-dihydro-5H-pyrido[2,3-b][1,5]benzodiazepine]",7.70
13,"CC(C)O[C@H]1CC[C@H](C(=O)N2Cc3cccnc3Nc3ccc(C(C)OCC4COC(C)(C)C4)cc32)CC1 (stereo partly drawn) [Example 545, 8-{1-[(5,5-dimethyltetrahydrofuran-3-yl)methoxy]ethyl}-6-{[trans-4-(1-methylethoxy)cyclohexyl]carbonyl}-6,11-dihydro-5H-pyrido[2,3-b][1,5]benzodiazepine]",7.96
14,"CC(C)O[C@H]1CC[C@H](C(=O)N2Cc3cccnc3Nc3ccc(C(C)OC[C@@H]4CCCO4)cc32)CC1 (stereo partly drawn) [Example 546, 6-{[trans-4-(1-methylethoxy)cyclohexyl]carbonyl}-8-{1-[(2S)-tetrahydrofuran-2-ylmethoxy]ethyl}-6,11-dihydro-5H-pyrido[2,3-b][1,5]benzodiazepine]",7.77
15,"O=C([C@H]1CC[C@H](OC(F)F)CC1)N1Cc2cccnc2Nc2ccc(N3CCOCC3)cc21 [Example 547, [Trans-4-(difluoromethoxy)cyclohexyl][8-(morpholin-4-yl)-5,11-dihydro-6H-pyrido[2,3-b][1,5]benzodiazepin-6-yl]methanone]",7.74

# pIC50: −log10 of the molar value.
